This passage reports activity change, negative = inhibition results from PubChem BioAssay AID881 (National Center for Advancing Translational Sciences (NCATS), 2007).

The chains behind the UniProt entries cited, without tags or fusion partners.
UniProt O15296, whole entry: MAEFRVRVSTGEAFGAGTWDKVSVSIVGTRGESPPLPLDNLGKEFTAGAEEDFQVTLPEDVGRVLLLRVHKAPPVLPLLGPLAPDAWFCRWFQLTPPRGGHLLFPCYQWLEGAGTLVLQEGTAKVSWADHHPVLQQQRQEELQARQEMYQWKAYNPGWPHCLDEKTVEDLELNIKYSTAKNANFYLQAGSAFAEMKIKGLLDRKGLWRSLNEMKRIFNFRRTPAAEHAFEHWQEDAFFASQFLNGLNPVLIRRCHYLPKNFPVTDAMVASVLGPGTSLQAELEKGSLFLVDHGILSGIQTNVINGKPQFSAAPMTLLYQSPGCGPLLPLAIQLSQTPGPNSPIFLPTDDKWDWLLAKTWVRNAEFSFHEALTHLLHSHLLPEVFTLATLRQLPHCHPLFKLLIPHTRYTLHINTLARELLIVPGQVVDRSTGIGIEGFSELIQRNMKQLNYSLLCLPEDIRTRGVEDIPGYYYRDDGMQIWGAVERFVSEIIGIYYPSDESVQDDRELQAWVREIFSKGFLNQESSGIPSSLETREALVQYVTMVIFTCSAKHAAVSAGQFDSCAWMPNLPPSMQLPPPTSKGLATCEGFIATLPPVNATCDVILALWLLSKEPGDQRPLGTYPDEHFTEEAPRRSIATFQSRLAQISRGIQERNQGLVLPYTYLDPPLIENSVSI

The structures appear in SMILES notation. The list shows a part of the results, in another mix than the full data. Calls of active or inactive are those of the source. The call rests on the fitted dose curve; in most records, active means well fitted inhibition curve with a large enough effect; inconclusive means small, poorly fitted or top-dose-only effect; inactive means no such curve, though single readings can be large or run the other way.
On the % scale 0 is the no-effect control and ±100 the full control effect.

In this assay the target is Polyunsaturated fatty acid lipoxygenase ALOX15B (Homo sapiens) (UniProt O15296). Nature of the assay: qHTS Assay for Inhibitors of 15-hLO-2 (15-human lipoxygenase 2). Further: nearly all actives have a fitted effect of over 60% in size. The following applies: purified 15hLO-2, xylenol orange hydroperoxide absorbance; at 57.1 µM (top of the series) unless noted. The text has this:
Assay Overview: NIH Molecular Libraries Screening Centers Network [MLSCN] NIH Chemical Genomics Center [NCGC] MLSCN Grant: MH081283-01A1 PI Name: Holman, T.R., University of California, Santa Cruz Human lipoxygenase 15hLO-2 is a member of the closely related lipoxygenase family of enzymes which catalyze the site-specific oxidation of arachidonic acid to various hormone precursor molecules and as such is a candidate for drug development in a variety of disease areas, such as cancer and inflammation. Inhibition of 15hLO-2 activity was screened by utilizing arachidonic acid as a substrate. The extent of hydroperoxide product formation was measured by a secondary chromogenic reaction in which xylenol orange (XO, Sigma-Aldrich, cat. number 39,818-7) reacts with the ferric ions produced from the reaction between the hydroperoxide and ferrous ions. The Fe(III)-XO complex is characterized with red-shifted absorbance at 560 nm. A purified preparation of human 15hLO-2 was supplied by Professor Ted Holman, University of California, Santa Cruz.
Assay Protocol: Buffer: 25 mM Hepes pH 7.5, 0.01% Triton X-100. Reagents/Controls: Buffer in columns 3 and 4 as negative control (no enzyme). Substrate solution: 45 uM arachidonic acid (Sigma-Aldrich, St. Louis, MO) final concentration dispensed throughout the plate. Enzyme: 50 nM 15hLO-2 final concentration in columns 1, 2, 5-48. Column 1 is neutral (100% activity). Column 2 contained pin-transferred titration of NDGA (nordihidroguaiaretic acid, Sigma-Aldrich, N 5023, top concentration 10 mM in DMSO, then 1:2 dilution in duplicate). (Dilution factor: 23 nL into 4 uL.) Chromogenic detection reagent (divalent iron/xylenol orange, Fe-XO): 200 uM xylenol orange plus 300 uM ferrous ammonium sulfate prepared freshly in 50 mM sulfuric acid. Assay Steps: Three uL of enzyme were dispensed to 1536-well Greiner black clear bottom plates. Compounds and controls (23 nL) were transferred via Kalypsys PinTool. The plates were incubated for 15 min at room temperature, and then 1 uL of substrate solution was added to start the reaction. After room temperature incubation for 90 minutes, 4 uL of Fe-XO solution was added to each well followed by a short spin (1000 rpm, 15 sec) and the plates were then incubated for 30 min. The absorbance at 405 and 573 nm were measured using ViewLux (Perkin-Elmer) High-throughput CCD imager and absorbance protocol settings. The 573-to-405 absorbance ratio was used to compute reaction progress.
`C/C1=C2N=C(/C=C3N=C(/C(C)=C4\[N-][C@@](C)([C@H]5N=C1[C@@](C)(CCC(=O)NC[C@H](C)OP(=O)([O-])O[C@@H]1[C@H](O)[C@H](n6cnc7cc(C)c(C)cc76)O[C@@H]1CO)[C@@H]5CC(N)=O)[C@](C)(CC(N)=O)[C@H]4CCC(N)=O)[C@@](C)(CC(N)=O)[C@@H]\3CCC(N)=O)C(C)(C)[C@@H]/2CCC(N)=O.[C-]#N.[Co+3]`: the activity change, negative = inhibition is inactive: -0.147% [at 25.6 µM].

As to `CP(=O)(OC12CC3CC(CC(C3)C1)C2)OC12CC3CC(CC(C3)C1)C2`, the activity change, negative = inhibition is inactive: 7.58%.

With `CP(=O)(Nc1ccc(Cl)cc1)Oc1ccc(F)cc1` (stereo unspecified), the activity change, negative = inhibition is inactive: 1.46%.

With `CC(C)(C)c1ccc(OP(C)(=O)O)cc1`, the activity change, negative = inhibition was inactive: 0.407%.

Consider `N#[O+].[C-]#N.[C-]#N.[C-]#N.[C-]#N.[C-]#N.[Fe+2].[Na+].[Na+]`, for which the activity change, negative = inhibition was inactive: 6.49%.

For `CCN(CC)CC(O)COC(=O)C(O)(c1ccccc1)C1CCCCC1` (stereo unspecified), the activity change, negative = inhibition is inactive: 12.2%.

Take `CP(=O)(Oc1ccccc1)N1CCOC1=O` (stereo unspecified): the activity change, negative = inhibition is inactive: 1.17%.

As to `OCCSCCO`, the activity change, negative = inhibition is inactive: -2.98%.

Turning to `COc1ccccc1OP(C)(=O)Nc1c(C)n(C)n(-c2ccccc2)c1=O` (stereo unspecified), the activity change, negative = inhibition is inactive: 1.89%.

With `Cc1c(NP(C)(=O)Oc2ccc(C(C)C)cc2)c(=O)n(-c2ccccc2)n1C` (stereo unspecified), the activity change, negative = inhibition is inactive: 2.73%.

Take `COc1ccccc1OP(C)(=O)Nc1ccc(C)cc1C` (stereo unspecified): the activity change, negative = inhibition was inactive: 0.644%.

As for `CP(=O)(Nc1ccccn1)Oc1ccccc1` (stereo unspecified), the activity change, negative = inhibition was inactive: 2.75%.

On to `CN(C)CCOC(=O)C(O)(c1ccccc1)C1CCCC1` (stereo unspecified), for which the activity change, negative = inhibition is inactive: 1.06%.

In the case of `COc1ccc(OP(C)(=O)Nc2ccccn2)cc1` (stereo unspecified), the activity change, negative = inhibition is inactive: 3.33%.

As for `COc1ccccc1OP(C)(=O)Nc1ccc(C)c(C)c1` (stereo unspecified), the activity change, negative = inhibition was inactive: -3.98%.

In the case of `CP(=O)(Nc1ccccc1)Oc1ccc(F)cc1` (stereo unspecified), the activity change, negative = inhibition was inactive: -4.27%.

As for `Cc1cccc([N+](=O)[O-])c1[N+](=O)[O-]`, the activity change, negative = inhibition was inactive: -2.15%.

With `CCC(C)(OO)OOC(C)(CC)OO` (stereo unspecified), the activity change, negative = inhibition is inactive: 9.82%.

For `CP(=O)(Nc1ccccc1F)Oc1ccccc1` (stereo unspecified), the activity change, negative = inhibition is inactive: 3.29%.

Consider `NNC(NN)NN.n1nc(-c2nn[nH]n2)n[nH]1`, for which the activity change, negative = inhibition is inactive: -7.66% [at 11.4 µM].

Take `[NH4+].[O-][Cl+3]([O-])([O-])[O-]`: the activity change, negative = inhibition is inactive: -9.4%.

Take `CCN(CCCl)Cc1ccccc1C`: the activity change, negative = inhibition is inactive: -5.55%.

For `Cc1ccccc1NP(C)(=O)Nc1ccccc1C`, the activity change, negative = inhibition was inactive: 11.2%.

In the case of `CCOP(=O)(CC)OCC`, the activity change, negative = inhibition is inactive: -9.2%.

Take `CCOP(C)(=S)SCC(=O)NC(C)(CC)C(=O)O` (stereo unspecified): the activity change, negative = inhibition was inactive: -13.1% [at 11.4 µM].

Take `Cc1ccc([N+](=O)[O-])c([N+](=O)[O-])c1`: the activity change, negative = inhibition is inactive: -4.6%.

With `Cc1c([N+](=O)[O-])cccc1[N+](=O)[O-]`, the activity change, negative = inhibition is inactive: -7.61%.

For the compound `COc1ccc(OP(C)(=O)Nc2cccc(Br)c2)cc1` (stereo unspecified), the activity change, negative = inhibition is inactive: 6.54%.

Take `CN(C)CCOC(=O)C(O)(c1ccccc1)C1CCCCC1` (stereo unspecified): the activity change, negative = inhibition was inactive: 7.44% [at 11.4 µM].

With `COc1ccccc1OP(C)(=O)Nc1c(C)cccc1C` (stereo unspecified), the activity change, negative = inhibition is inactive: 3.5%.

On to `Cc1nc2ccc3ccccc3c2s1.O=[N+]([O-])c1cc([N+](=O)[O-])c(O)c([N+](=O)[O-])c1`, for which the activity change, negative = inhibition was inactive: -21.9%.

Take `Cc1cc(C)cc(OP(C)(=O)Nc2ccccn2)c1` (stereo unspecified): the activity change, negative = inhibition is inactive: 5.26%.

Take `Cc1ccc(C)c(NP(C)(=O)Oc2ccccc2)c1` (stereo unspecified): the activity change, negative = inhibition is inactive: -4%.

Consider `Cc1cc(C)cc(OP(C)(=O)Nc2ccc(C)cc2C)c1` (stereo unspecified), for which the activity change, negative = inhibition is inactive: 4.3%.

In the case of `Cc1ccc([N+](=O)[O-])cc1[N+](=O)[O-]`, the activity change, negative = inhibition is inactive: 1.24%.

Consider `O=[N+]([O-])OCC(CO[N+](=O)[O-])(CO[N+](=O)[O-])CO[N+](=O)[O-]`, for which the activity change, negative = inhibition was inactive: -10.6% [at 0.0915 µM].

For `O=[N+]([O-])c1cccc([N+](=O)[O-])c1`, the activity change, negative = inhibition is inactive: -2.69%.

Take `Cc1ccc(NP(C)(=O)Oc2ccccc2)c(C)c1` (stereo unspecified): the activity change, negative = inhibition was inactive: -6.01%.

`COc1ccccc1OP(C)(=O)Nc1ccc(C)cc1` (stereo unspecified): the activity change, negative = inhibition is inactive: 2.92%.

In the case of `COc1ccc(OP(C)(=O)Nc2cccc(F)c2)cc1` (stereo unspecified), the activity change, negative = inhibition was inactive: -3.24%.

For `O=[N+]([O-])[O-].[NH4+]`, the activity change, negative = inhibition was inactive: -5.32%.

Turning to `CCOP(C)(=S)SCC(=O)NC(C)C(=O)O` (stereo unspecified), the activity change, negative = inhibition is inactive: -8.52%.

Take `CP(=O)(Nc1ccccn1)Oc1ccc(Cl)cc1` (stereo unspecified): the activity change, negative = inhibition is inactive: 9.95%.

Consider `CP(=O)(NC(=O)Nc1ccccc1)Oc1ccccc1` (stereo unspecified), for which the activity change, negative = inhibition was inactive: -3.38%.

As to `CP(=S)(Nn1cnnc1)Oc1ccccc1` (stereo unspecified), the activity change, negative = inhibition was inactive: -4.03%.

For `N1=C(c2nnc(-c3nn[nH]n3)nn2)NNN1`, the activity change, negative = inhibition is inactive: 23.3% [at 11.4 µM].
